The values below come from ChEMBL document CHEMBL1145019, “The power of visual imagery in drug design. Isopavines as a new class of morphinomimetics and their human opioid receptor binding activity” (J Med Chem, 2003).

The chains behind the UniProt entries cited, without tags or fusion partners. Where a name states a change or a piece, a line headed by the entry shows the natural chain unless it says otherwise.
UniProt P41145: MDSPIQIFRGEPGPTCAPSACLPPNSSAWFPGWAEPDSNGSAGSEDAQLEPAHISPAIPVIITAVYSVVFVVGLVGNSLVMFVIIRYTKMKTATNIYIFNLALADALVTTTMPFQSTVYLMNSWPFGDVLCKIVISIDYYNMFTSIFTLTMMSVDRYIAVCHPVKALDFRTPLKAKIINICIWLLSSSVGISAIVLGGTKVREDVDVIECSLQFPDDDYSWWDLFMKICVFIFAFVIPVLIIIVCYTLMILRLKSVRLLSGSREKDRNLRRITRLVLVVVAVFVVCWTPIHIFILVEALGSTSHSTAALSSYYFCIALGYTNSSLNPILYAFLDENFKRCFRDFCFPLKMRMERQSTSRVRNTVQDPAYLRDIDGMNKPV

The assay concerns the target Kappa-type opioid receptor (Homo sapiens, UniProt P41145). The assay can be described thus: biochemical. The assay is classed as cell-based, HEK293.

`COc1ccc2c3c1O[C@H]1[C@@H](O)C=C[C@H]4[C@@H](C2)N(C)CC[C@@]341` [CODEINE]: it took 15 µM to reach half-maximal inhibition (IC50).
